Assay results: patent US9464084B2, “P2X7 modulators” (Janssen Pharmaceutica NV, priority 2013, dated 2016)

The chains behind the UniProt entries cited, without tags or fusion partners. Where a name states a change or a piece, a line headed by the entry shows the natural chain unless it says otherwise.
UniProt Q64663: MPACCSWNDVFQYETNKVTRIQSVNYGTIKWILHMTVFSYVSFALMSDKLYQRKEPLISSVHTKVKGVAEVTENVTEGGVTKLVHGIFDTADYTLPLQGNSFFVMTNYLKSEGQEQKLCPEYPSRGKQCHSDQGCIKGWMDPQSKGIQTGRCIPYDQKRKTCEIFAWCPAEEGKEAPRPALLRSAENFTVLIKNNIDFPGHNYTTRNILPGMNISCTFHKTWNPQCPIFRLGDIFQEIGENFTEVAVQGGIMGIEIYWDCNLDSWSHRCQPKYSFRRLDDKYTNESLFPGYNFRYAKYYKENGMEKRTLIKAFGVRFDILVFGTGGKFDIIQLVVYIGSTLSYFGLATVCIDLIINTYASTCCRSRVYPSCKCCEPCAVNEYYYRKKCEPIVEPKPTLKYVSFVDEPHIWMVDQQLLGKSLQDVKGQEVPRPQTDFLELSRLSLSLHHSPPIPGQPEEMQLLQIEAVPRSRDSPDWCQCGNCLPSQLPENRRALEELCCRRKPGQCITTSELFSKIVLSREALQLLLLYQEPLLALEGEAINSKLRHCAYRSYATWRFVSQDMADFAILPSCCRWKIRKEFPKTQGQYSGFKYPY
UniProt Q99572: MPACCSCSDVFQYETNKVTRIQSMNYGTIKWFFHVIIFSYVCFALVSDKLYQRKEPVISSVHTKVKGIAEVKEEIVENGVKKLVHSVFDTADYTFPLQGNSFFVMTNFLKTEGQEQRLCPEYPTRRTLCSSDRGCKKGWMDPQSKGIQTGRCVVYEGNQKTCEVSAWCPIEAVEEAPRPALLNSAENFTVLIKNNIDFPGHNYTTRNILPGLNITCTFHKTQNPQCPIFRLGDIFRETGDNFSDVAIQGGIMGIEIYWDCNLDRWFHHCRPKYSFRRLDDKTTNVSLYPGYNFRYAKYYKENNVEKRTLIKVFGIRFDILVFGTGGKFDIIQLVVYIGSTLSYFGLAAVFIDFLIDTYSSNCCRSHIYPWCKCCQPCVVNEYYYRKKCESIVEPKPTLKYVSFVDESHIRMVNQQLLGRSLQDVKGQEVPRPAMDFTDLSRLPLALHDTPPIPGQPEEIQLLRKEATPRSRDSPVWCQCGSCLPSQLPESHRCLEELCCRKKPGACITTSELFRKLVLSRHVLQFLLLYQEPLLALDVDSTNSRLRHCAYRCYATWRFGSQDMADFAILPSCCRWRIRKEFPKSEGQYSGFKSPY

What was measured:
[1] = target: rat P2X7 (Rattus norvegicus (Rat), UniProt Q64663); test: Ca2+ flux (FLIPR) in 1321N1 cells expressing recombinant rat P2X7 channel; type: cell-based; settings: 250 μM BzATP;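 further: Calcium-4 dye fluorescence change read 180 s after agonist addition, following 30 min cell preincubation with test compound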
[2] = target: T1, P2X7 (Homo sapiens (Human), UniProt Q99572); test: Radioligand binding, tritiated A-804598, human P2X7-1321N1 cell membranes; settings: 1 hour at 4° C.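 Further: ki obtained from the binding IC50 after correction for tracer concentration and tracer affinity.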
[3] = target: T1, P2X7; test: Ca2+ flux (FLIPR) in 1321N1 cells expressing recombinant human P2X7 channel; type: cell-based; settings: 250 μM BzATP;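 further: Calcium-4 dye-loaded cells exposed to compound for 30 min before agonist addition, fluorescence change read 180 s after agonist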

## Cc1ccnc(-n2nnc3c2CCN(C(=O)c2cccc(C(F)(F)F)c2Cl)[C@@H]3C)c1 (single isomer, unassigned) [Example 185, (R*)-(2-chloro-3-(trifluoromethyl)phenyl)(4-methyl-1-(4-methylpyridin-2-yl)-6,7-dihydro-1H-[1,2,3]triazolo[4,5-c]pyridin-5(4H)-yl)methanone]
[1]
  IC50: 0.0195 µM

## Cc1ccnc(-n2nnc3c2CCN(C(=O)c2cccc(C(F)(F)F)c2Cl)[C@H]3C)c1 (single isomer, unassigned) [Example 186, (S*)-(2-chloro-3-(trifluoromethyl)phenyl)(4-methyl-1-(4-methylpyridin-2-yl)-6,7-dihydro-1H-[1,2,3]triazolo[4,5-c]pyridin-5(4H)-yl)methanone]
[1]
  IC50: 11.7 µM

## O=C(c1cccc(C(F)(F)F)c1Cl)N1CCc2c(ncn2-c2cnccn2)C1 [Example 6, (2-Chloro-3-(trifluoromethyl)phenyl)(1-(pyrazin-2-yl)-6,7-dihydro-1H-imidazo[4,5-c]pyridin-5(4H)-yl)methanone]
[1]
  IC50: 1.78 µM

## O=C(OCC1c2ncn(-c3ccccc3)c2CCN1C(=O)c1cccc(C(F)(F)F)c1Cl)c1cccc(C(F)(F)F)c1Cl (stereo not shown) [Example 36, (5-{[2-Chloro-3-(trifluoromethyl)phenyl]carbonyl}-1-phenyl-4,5,6,7-tetrahydro-1H-imidazo[4,5-c]pyridin-4-yl)methyl 2-chloro-3-(trifluoromethyl)benzoate]
[1]
  IC50: 10.1 µM

## O=C(c1cccc(C(F)(F)F)c1F)N1CCc2c(nc(C(F)(F)F)n2-c2ccccc2)C1 [Example 57, 5-{[2-Fluoro-3-(trifluoromethyl)phenyl]carbonyl}-1-phenyl-2-(trifluoromethyl)-4,5,6,7-tetrahydro-1H-imidazo[4,5-c]pyridine]
[1]
  IC50: 0.22 µM

## O=C(c1cccc(Cl)c1Cl)N1CCc2c(ncn2-c2ccn[nH]2)C1 [Example 60, 5-[(2,3-Dichlorophenyl)carbonyl]-1-(1H-pyrazol-5-yl)-4,5,6,7-tetrahydro-1H-imidazo[4,5-c]pyridine]
[1]
  IC50: 1.65 µM

## Cn1nc(-c2ccc(F)cc2)c2c1CN(C(=O)c1cccc(Cl)c1Cl)CC2 [Example 109, 6-[(2,3-Dichlorophenyl)carbonyl]-3-(4-fluorophenyl)-1-methyl-4,5,6,7-tetrahydro-1H-pyrazolo[3,4-c]pyridine]
[1]
  IC50: 3.16 µM

## O=C(c1cccc(C(F)(F)F)c1Cl)N1CCc2c(-c3ccc(F)cc3)n[nH]c2C1 [Example 110, 6-{[2-Chloro-3-(trifluoromethyl)phenyl]carbonyl}-3-(4-fluorophenyl)-4,5,6,7-tetrahydro-2H-pyrazolo[3,4-c]pyridine]
[1]
  IC50: 1.26 µM

## O=C(c1cccc(C(F)(F)F)c1Cl)N1CCc2c(nnn2-c2ccccc2OCCF)C1 [Example 126, (2-Chloro-3-(trifluoromethyl)phenyl)(1-(2-(2-fluoroethoxy)phenyl)-6,7-dihydro-1H-[1,2,3]triazolo[4,5-c]pyridin-5(4H)-yl)methanone]
[1]
  IC50: 1.41 µM

## O=C(c1cccc(C(F)(F)F)c1Cl)N1CCc2c(nnn2-c2cccc(F)n2)C1 [Example 135, (2-Chloro-3-(trifluoromethyl)phenyl)(1-(6-fluoropyridin-2-yl)-6,7-dihydro-1H-[1,2,3]triazolo[4,5-c]pyridin-5(4H)-yl)methanone]
[1]
  IC50: 1.38 µM

## COc1ccc(-n2nnc3c2CCN(C(=O)c2cccc(C(F)(F)F)c2Cl)C3C)nc1 (stereo not shown) [Example 145, (2-Chloro-3-(trifluoromethyl)phenyl)(1-(5-methoxypyridin-2-yl)-4-methyl-6,7-dihydro-1H-[1,2,3]triazolo[4,5-c]pyridin-5(4H)-yl)methanone]
[1]
  IC50: 13.8 µM

## CC1CN(C(=O)c2cccc(Cl)c2Cl)Cc2nnn(-c3ccccc3)c21 (stereo not shown) [Example 244, (2,3-Dichlorophenyl)(7-methyl-1-phenyl-6,7-dihydro-1H-[1,2,3]triazolo[4,5-c]pyridin-5(4H)-yl)methanone]
[1]
  IC50: 13.5 µM

## CC1CN(C(=O)c2cccc(Cl)c2Cl)Cc2nnn(-c3ccc(F)cc3)c21 (stereo not shown) [Example 247, (2,3-Dichlorophenyl)(1-(4-fluorophenyl)-7-methyl-6,7-dihydro-1H-[1,2,3]triazolo[4,5-c]pyridin-5(4H)-yl)methanone]
[1]
  IC50: 8.2 µM

## CC1c2nnn(-c3ncco3)c2CCN1C(=O)c1cccc(C(F)(F)F)c1Cl (stereo not shown) [Example 250]
[1]
  IC50: 0.67 µM

## CC1c2ncn(-c3ccc(F)cn3)c2CCN1C(=O)c1ccc(F)c(Cl)c1Cl (stereo not shown) [Example 261, (2,3-dichloro-4-fluorophenyl)(1-(5-fluoropyridin-2-yl)-4-methyl-6,7-dihydro-1H-imidazo[4,5-c]pyridin-5(4H)-yl)methanone]
[1]
  IC50: 1.23 µM

## Cc1c(C(=O)N2CCc3c(ncn3-c3ccc(F)cn3)C2C)cccc1C(F)(F)F (stereo not shown) [Example 263, (1-(5-fluoropyridin-2-yl)-4-methyl-6,7-dihydro-1H-imidazo[4,5-c]pyridin-5(4H)-yl)(2-methyl-3-(trifluoromethyl)phenyl)methanone]
[1]
  IC50: 1.25 µM

## O=C(c1ccc(Cl)cc1Cl)N1CCc2c(nnn2-c2cnccn2)C1 [Example 277, (2,4-dichlorophenyl)(1-(pyrazin-2-yl)-6,7-dihydro-1H-[1,2,3]triazolo[4,5-c]pyridin-5(4H)-yl)methanone]
[2]
  Ki: 0.0234 µM
[3]
  IC50: 0.0946 µM

## Cc1c(C(=O)N2CCc3c(nnn3-c3ncccn3)C2C)cccc1C(F)(F)F (stereo not shown) [Example 282, (4-methyl-1-(pyrimidin-2-yl)-6,7-dihydro-1H-[1,2,3]triazolo[4,5-c]pyridin-5(4H)-yl)(2-methyl-3-(trifluoromethyl)phenyl)methanone]
[2]
  Ki: 0.0158 µM
[3]
  IC50: 0.0029 µM

## CCCOc1cccnc1-n1nnc2c1CCN(C(=O)c1cccc(C(F)(F)F)c1Cl)C2C (stereo not shown) [Example 293, (2-chloro-3-(trifluoromethyl)phenyl)(4-methyl-1-(3-propoxypyridin-2-yl)-6,7-dihydro-1H-[1,2,3]triazolo[4,5-c]pyridin-5(4H)-yl)methanone]
[2]
  Ki: 0.0437 µM
[3]
  IC50: 0.179 µM

## Cc1ccnc(-n2nnc3c2CCN(C(=O)c2cccc(C(F)(F)F)c2Cl)C3C)c1 (stereo not shown) [Example 299, (2-chloro-3-(trifluoromethyl)phenyl)(4-methyl-1-(4-methylpyridin-2-yl)-6,7-dihydro-1H-[1,2,3]triazolo[4,5-c]pyridin-5(4H)-yl)methanone]
[1]
  IC50: 0.0127 µM

## Cc1ccc(-n2nnc3c2CCN(C(=O)c2cccc(C(F)(F)F)c2Cl)C3C)nc1 (stereo not shown) [Example 301, (2-chloro-3-(trifluoromethyl)phenyl)(4-methyl-1-(5-methylpyridin-2-yl)-6,7-dihydro-1H-[1,2,3]triazolo[4,5-c]pyridin-5(4H)-yl)methanone]
[2]
  Ki: 0.1 µM
[3]
  IC50: 0.0776 µM

## Cc1c(C(=O)N2CCc3c(ncn3-c3ccc(F)cn3)C2)cccc1C(F)(F)F [Example 312, (1-(5-fluoropyridin-2-yl)-6,7-dihydro-1H-imidazo[4,5-c]pyridin-5(4H)-yl)(2-methyl-3-(trifluoromethyl)phenyl)methanone]
[1]
  IC50: 8.67 µM

## CC1c2ncn(-c3ccc(F)cn3)c2C=CN1C(=O)c1cccc(C(F)(F)F)c1Cl (stereo not shown) [Example 321, (2-chloro-3-(trifluoromethyl)phenyl)(1-(5-fluoropyridin-2-yl)-4-methyl-1H-imidazo[4,5-c]pyridin-5(4H)-yl)methanone]
[2]
  Ki: 0.1 µM
[3]
  IC50: 0.0374 µM
